This is a selection; strong and weak results do not stand in their true shares. Calls of active or inactive are those of the source.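 Rule for the calls: active = duplicate-averaged ratio beyond 3 SD from buffer wells, up or down, though filed actives are nearly all decreases; inactive = the rest.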
Assay: dye ratio change in CHT-lacking host cells – cell-based, parental HEK293, membrane potential dye, counter-screen for CHT activator project (AID 623908)
Settings: parental HEK293, membrane potential dye fluorescence (FDSS); at 10 µM; measured after EC20 choline addition

SMILES	ratio readout change
CCC1=CC2Cc3nc4ccc(Cl)cc4c(N)c3C(C1)C2 (configuration not stated)	active: -49.2
CC1CCC(C(C)C)C(OP(=O)(Nc2ccccn2)c2ccccc2)C1 (configuration not stated)	inactive: 0

From PubChem BioAssay AID623908 (Johns Hopkins Ion Channel Center, 2012)
